Experiments:
human MC4R (hMC4R) [1] = target: T1, human MC4R (hMC4R) (Homo sapiens, UniProt P32245); conditions: cAMP at 10 μM, in relation to MT-II; ref previously published data; cited from earlier work
human MC1R (hMC1R) [2] = target: T2, human MC1R (hMC1R) (Homo sapiens, UniProt Q01726); conditions: cAMP at 10 μM, in relation to MT-II; ref previously published data; cited from earlier work
human MC1R (hMC1R) [3] = target: T2, human MC1R (hMC1R); test: Competitive binding assay with [125I]NDP-α-MSH, hMC1R; conditions: ratio of IC50 hMC5R / hMC1R
human MC4R (hMC4R) [4] = target: T1, human MC4R (hMC4R); conditions: [125I]NDP-α-MSH displacement at 10 μM; ref previously published data; cited from earlier work
human MC1R (hMC1R) [5] = target: T2, human MC1R (hMC1R); conditions: [125I]NDP-α-MSH displacement at 10 μM; ref previously published data; cited from earlier work

Sequences of proteins named here, by UniProt entry; tags and fusion partners are left off. A change or cut given only in a name is not applied to a line headed by its entry.
UniProt P32245, whole entry: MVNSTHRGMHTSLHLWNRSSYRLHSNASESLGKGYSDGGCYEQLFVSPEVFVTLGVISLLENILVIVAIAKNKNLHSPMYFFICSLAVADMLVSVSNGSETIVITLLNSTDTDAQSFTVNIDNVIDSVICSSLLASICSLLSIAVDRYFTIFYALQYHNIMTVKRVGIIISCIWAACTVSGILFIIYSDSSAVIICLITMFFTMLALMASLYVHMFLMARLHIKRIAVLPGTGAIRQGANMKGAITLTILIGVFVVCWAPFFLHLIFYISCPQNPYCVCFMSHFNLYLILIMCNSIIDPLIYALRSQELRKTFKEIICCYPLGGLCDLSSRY
UniProt Q01726: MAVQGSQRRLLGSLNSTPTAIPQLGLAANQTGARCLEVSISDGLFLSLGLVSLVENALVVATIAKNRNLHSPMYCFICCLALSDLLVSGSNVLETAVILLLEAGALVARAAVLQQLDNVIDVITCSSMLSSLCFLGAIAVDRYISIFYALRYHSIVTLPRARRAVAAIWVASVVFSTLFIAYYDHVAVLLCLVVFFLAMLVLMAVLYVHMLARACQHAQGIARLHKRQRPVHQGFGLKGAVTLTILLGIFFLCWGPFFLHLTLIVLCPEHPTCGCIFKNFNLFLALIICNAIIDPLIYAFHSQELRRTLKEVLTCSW

In the case of “H-Tyr-Val-Nle-Gly-His-D-Nal(2)-Arg-D-Trp-Asp-Arg-Phe-Gly-NH2 [Compound 1]”, the “hMC4R % max effect” value (human MC4R (hMC4R) [1]) is listed as 18%, the “hMC1R % max effect” value (human MC1R (hMC1R) [2]) is listed as 70% and the “binding affinity to hMC1R stronger than hMC5R” value (human MC1R (hMC1R) [3]) is listed as 12 fold. The “hMC4R % BE” value (human MC4R (hMC4R) [4]) was 100% and the “hMC1R % BE” value (human MC1R (hMC1R) [5]) was 100%.

Reference: PMC5999399 (Journal of medicinal chemistry, 2017)
